Patent publication US9969699B2, “Cancer cell growth inhibitor, anticancer agent, and method for screening same, as well as novel compound” (Microbial Chemistry Research Foundation, priority 2014, dated 2018)

What was measured:
[1] = tested on: NIH3T3/EGFRWT cell-transplanted tumor; details: in vivo
Excerpt: Note that, “*” denotes t<0.05.

[2] = tested on: NIH3T3/EGFR vIII cell-transplanted tumor; details: mouse, in vivo

## COc1cc2ncnc(Nc3ccc(F)c(Cl)c3)c2cc1OCCCN1CCOCC1 [Gefitinib, reference compound]
[1]
  mouse body weight (weight loss): weight loss was observed
[1]; mouse
  tumor weight versus negative control group: significantly different
[2]
  tumor weight versus negative control group: significantly different
